Earlier results as cited in PMC12345137 (mBio, 2025).

The chains behind the UniProt entries cited, without tags or fusion partners.
UniProt O07911, entry or part of it: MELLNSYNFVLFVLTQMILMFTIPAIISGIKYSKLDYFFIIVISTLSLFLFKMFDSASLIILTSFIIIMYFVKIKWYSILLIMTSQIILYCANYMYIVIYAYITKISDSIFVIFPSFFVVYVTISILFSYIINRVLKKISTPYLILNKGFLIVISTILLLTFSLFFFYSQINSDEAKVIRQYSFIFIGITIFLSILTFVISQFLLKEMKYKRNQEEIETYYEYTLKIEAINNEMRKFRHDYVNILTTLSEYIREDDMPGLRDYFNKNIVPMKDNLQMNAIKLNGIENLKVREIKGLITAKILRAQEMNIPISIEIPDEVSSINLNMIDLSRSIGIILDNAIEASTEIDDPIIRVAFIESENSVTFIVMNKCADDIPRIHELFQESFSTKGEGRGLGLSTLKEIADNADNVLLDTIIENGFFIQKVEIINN

Columns and labels:
S. aureus (SA) agr-II = conditions: fluorescence; ref (17); cited from earlier work
SA AgrC-I = SA AgrC-I (Staphylococcus aureus, UniProt O07911); conditions: 100 nM cognate AIP; ± SEM; -b = no inhibition recorded at the highest AIP concentration tested; determined previously; ref (1); read-out: IC50, SA AgrC-I, b-lactamase assay; cited from earlier work

Q: With `NCCCC[C@H](N)C(=O)N[C@@H](Cc1ccc(O)cc1)C(=O)N[C@@H](Cc1ccc(O)cc1)C(=O)N1CCC[C@H]1C(=O)N[C@H]1CSC(=O)[C@H](Cc2ccccc2)NC(=O)[C@H](Cc2ccc(O)cc2)NC(=O)CNC(=O)[C@H](Cc2c[nH]c3ccccc23)NC1=O` [compound 33, S. simulans AIP-II] as the compound, how does the IC50 (S. aureus (SA) agr-II) read?
A: 15 nM

Q: With S. chromogenes AIP-I [compound 27] as the compound, how does the IC50 (SA AgrC-I) read?
A: 15 ± 1 nM

Q: With S. haemolyticus AIP-I [compound 15] as the compound, how does the IC50 (SA AgrC-I) read?
A: 340 ± 25 nM

Q: For S. hominis AIP-III [compound 12], which IC50 (SA AgrC-I) is on record?
A: 134 ± 8 nM

Q: Which IC50 (SA AgrC-I) does the source give for S. schleiferi AIP-I [compound 30] here?
A: 2.8 ± 0.8 nM

Q: For S. vitulinus AIP-I [compound 35], which IC50 (SA AgrC-I) is on record?
A: 190 ± 15 nM

Q: With S. warneri AIP-I [compound 16] as the compound, how does the IC50 (SA AgrC-I) read?
A: 100 ± 10 nM
